The record followed here is US9540333B2, “Alkyl amide-substituted pyrimidine compounds useful in the modulation of IL-12, IL-23 and/or IFNα” (Bristol-Myers Squibb Company, priority 2012, dated 2017).

Protein sequences, listed by entry. Tags and fused reporters are not part of them. Residues count along the entry.
UniProt P29597, 575-869 limits assumed: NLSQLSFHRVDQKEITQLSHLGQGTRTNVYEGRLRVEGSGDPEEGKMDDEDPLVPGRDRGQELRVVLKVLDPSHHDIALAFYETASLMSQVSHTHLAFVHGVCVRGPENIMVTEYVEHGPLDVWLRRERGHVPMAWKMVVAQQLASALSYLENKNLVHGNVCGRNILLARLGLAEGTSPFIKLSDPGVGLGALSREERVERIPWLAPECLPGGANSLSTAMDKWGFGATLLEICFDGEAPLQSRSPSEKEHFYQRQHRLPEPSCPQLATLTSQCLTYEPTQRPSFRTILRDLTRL

Experiment [1] relates to IL-23 stimulated Kit225 T cells with STAT-dependent luciferase reporter. Description: Kit225 T cell assay, IL-23 stimulated STAT-dependent luciferase reporter. The conditions noted are these: read-out: IL-23 Kit225 Reporter, LE (IC50), 20 ng/mL human recombinant IL-23, 5-6 hours. How it is done: (§1) Kit225 T cells with a stably-integrated STAT-dependent luciferase reporter were plated in RPMI (Gibco) containing 10% heat-inactivated FBS (Gibco) and 100 U/mL PenStrep (Gibco). The cells were then stimulated with either 20 ng/mL human recombinant IL-23 or 200 U/mL human recombinant IFNα (PBL InterferonSource) for 5-6 hours. Luciferase expression was measured using the STEADY-GLO® Luciferase Assay System (Promega) according to the manufacturer's instructions. Inhibition data were calculated by comparison to no inhibitor control wells for 0% inhibition and non-stimulated control wells for 100% inhibition. Dose response curves were generated to determine the concentration required to inhibit 50% of cellular response (IC50) as derived by non-linear regression analysis.
In general terms: In a reporter assay the amount or activity of a reporter protein is the signal.

Experiment [2] relates to IFNα stimulated Kit225 T cells with STAT-dependent luciferase reporter. Description: Kit225 T cell assay, IFNα stimulated STAT-dependent luciferase reporter. The conditions noted are these: read-out: IFNα Kit225 Reporter, LE (IC50), 200 U/mL human recombinant IFNα, 5-6 hours. As for the experimental part:
as §1

Experiment [3] has as its target His-tagged protein corresponding to amino acids 575-869 of human Tyk2 (Homo sapiens, UniProt P29597). Description: Probe displacement assay (scintillation proximity, radiolabeled probe). The conditions noted are these: read-out: Probe Displacement Data (EC50); 2.5 nM Tyk2 (575-869), 40 nM tritiated probe, 30 minutes at room temperature. How it is done:
The probe displacement assay is conducted as follows: In a […], test compounds along with recombinantly expressed His-tagged protein corresponding to amino acids 575-869 of human Tyk2 (sequence shown below) at 2.5 nM, 40 nM ((R)—N-(1-(3-(8-methyl-5-(methylamino)-8H-imidazo[4,5-d]thiazolo[5,4-b]pyridin-2-yl)phenyl)ethyl)-2-([^3H]methylsulfonyl)benzamide) (preparation described below) and 80 μg/mL Copper His-Tag scintillation proximity assay beads (Perkin Elmer, Catalog #RPNQ0095) in 50 mM HEPES, pH 7.5, containing 100 μg/mL bovine serum albumin and 5% DMSO were incubated for 30 minutes at room temperature. The amount of radiolabeled probe (preparation described below) bound to Tyk2 was then quantified by scintillation counting, and the inhibition by the test compound calculated by comparison to wells either with no inhibitor (0% inhibition) or without Tyk2 (100% inhibition). The IC50 value is defined as the concentration of test compound required to inhibit radiolabeled probe binding by 50%.
Protein Sequence of recombinant Hig-tagged Tyk2 (575-869):
The preparation of radiolabeled probe, (R)—N-(1-(3-(8-methyl-5-(methylamino)-8H-imidazo[4,5-d]thiazolo[5,4-b]pyridin-2-yl)phenyl)ethyl)-2-([^3H]methylsulfonyl)benzamide, was performed as described below.

Regarding `CCCNc1ncc(C(=O)NC)c(Nc2ccccc2C(N)=O)n1`, the values for the IC50 in experiment [1] and in experiment [2] were 9.18 µM and 12.5 µM, respectively. Besides, in experiment [3], the EC50 came to 0.09 µM.

One may read the EC50 as the concentration giving half of the maximal effect.
